The text below walks through data of paper PMC12785511, “Integrative Profiling for BBB Permeability Using Capillary Electrochromatography, Experimental Physicochemical Parameters, and Ensemble Machine Learning” (International Journal of Molecular Sciences, 2025).

This data set is described as follows: physchem.

Usually logP stands for a log measure of how a compound divides between an organic and an aqueous phase. Read a high logP as higher lipophilicity. Broadly, the logD is lipophilicity at a set pH, counting ionised and neutral species. Low readings indicate a more hydrophilic compound, high ones a more lipophilic compound. Turning to `CNC(=O)Oc1ccc2c(c1)[C@]1(C)CCN(C)[C@@H]1N2C` [physostigmine], the logP worked out at 1.69 ± 0.03. This compound displayed a logD (pH 7.4) of 0.81.
